Laboratory results reported in patent US20060216235A1, “Cancerous disease modifying antibodies” (priority 2003, published 2006).

Experiments:
[1] = system: OVCAR
[2] = system: Hs888 Lu
[3] = system: CCD 27sk
[4] = system: HT-29
[5] = system: SW620
[6] = system: MB-468; set-up: key to the marks not given beside the values
[7] = system: PC-3
[8] = system: MB-231
[9] = system: NCI H460
[10] = system: MCF-7
[11] = system: HT-29; test: FACS binding; settings: 20 micrograms/mL
Method: (§1) Cells were prepared for FACS by initially washing the cell monolayer with DPBS (without Ca^++ and Mg^++). Cell dissociation buffer (INVITROGEN) was then used to dislodge the cells from their cell culture plates at 37° C. After centrifugation and collection the cells were resuspended in Dulbecco's phosphate buffered saline containing MgCl2, CaCl2 and 25% fetal bovine serum at 4° C. […] Prior to the addition of Alexa Fluor 488-conjugated secondary antibody the cells were washed once with wash media. The Alexa Fluor 488-conjugated antibody in staining media was then added for 20 minutes. The cells were then washed for the final time and resuspended in staining media containing 1 microgram/mL propidium iodide. Flow cytometric acquisition of the cells was assessed by running samples on a FACScan using the CellQuest software (BD Biosciences). The forward (FSC) and side scatter (SSC) of the cells were set by adjusting the voltage and amplitude gains on the FSC and SSC detectors. […] Live cells were acquired by gating for FSC and propidium iodide exclusion. Table 3 tabulated the mean fluorescence intensity fold increase above isotype control and is presented qualitatively as: less than 5 (−); 5 to 50 (+); 50 to 100 (++); above 100 (+++) and in parenthesis, the percentage of cells stained.

[12] = system: SW1116; test: FACS binding; settings: 20 micrograms/mL
Method: as §1

[13] = system: OVCAR; test: FACS binding; settings: 20 micrograms/mL
Method: as §1

[14] = system: PC-3; test: FACS binding; settings: 20 micrograms/mL
Method: as §1

[15] = system: SW1116; set-up: key to the marks not given beside the values

Question: For “anti-EGFR: positive control antibody C225, IgG1, kappa, 5 microgram/mL, Cedarlane”, which “cytotoxicity, OVARY OVCAR” value [1] is on record?
Answer: +

Question: What about the “cytotoxicity, NORMAL Hs888 Lu” value [2] of the same substance?
Answer: −

Question: What about the “cytotoxicity, NORMAL CCD27sk” value [3] of the same substance?
Answer: +

Question: What about the “cytotoxicity, COLON HT-29” value [4] of the same substance?
Answer: −

Question: And the “cytotoxicity, COLON SW620” value [5]?
Answer: −

Question: And the “cytotoxicity, BREAST MB-468” value [6]?
Answer: +++

Question: What about the “cytotoxicity, PROSTATE PC-3” value [7] of the same substance?
Answer: −

Question: What about the “cytotoxicity, BREAST MB-231” value [8] of the same substance?
Answer: −

Question: What about the “cytotoxicity, LUNG NCI H460” value [9] of the same substance?
Answer: −

Question: And the “cytotoxicity, BREAST MCF-7” value [10]?
Answer: +

Question: And the “percentage of cells stained, HT-29” value [11]?
Answer: 97%

Question: And the “percentage of cells stained, SW1116” value [12]?
Answer: 43%

Question: What about the “percentage of cells stained, OVCAR” value [13] of the same substance?
Answer: 90%

Question: And the “percentage of cells stained, PC-3” value [14]?
Answer: 95%

Question: And the “cytotoxicity, COLON SW1116” value [15]?
Answer: +++
